# Columns and labels:
# RPMI-8402 cells = assay: alamarBlue proliferation assay with RPMI-8402 cells; details: read-out: Activity on RPMI-8402 (IC50), day 5
# Text: (§1) These hyperproliferative processes can be benign or malignant and include hyperplasia, neoplasia, cancer and pre-cancerous lesions, and metastases. […] The readout was taken with a multi-well plate-reader (Tecan Spark®) in the fluorescence mode with applying a filter for excitation at 560 nm (band width 10 nm) and for emission at 590 nm (band width 10 nm). […]
# LOUCY cells = assay: alamarBlue proliferation assay with LOUCY cells; details: read-out: Activity on LOUCY (IC50), day 5
# Experimental: These hyperproliferative processes can be benign or malignant and include hyperplasia, neoplasia, cancer and pre-cancerous lesions, and metastases. […] To this end, according cells were seeded into 96-well plates (CORNING #3598) suitable for fluorescence assays at following initial cell numbers: 1000 cells per well for HPEK; 3000 cells per well for MDA-MB-231, 8000 cells per well for ZR-75-30, 1500 cells per well for HCC-1395, 1500 cells per well for HCC-1937, 3000 cells per well for T-47D, 1500 cells per well for JURKAT, 5000 cells per well for RPMI-8402, 9000 cells per well for LOUCY, 1500 cells per well for TANQUE, 9000 cells per well for REC-1, 1000 cells per well for HL-60, 1000 cells per well for NB-4, 9000 cells per well for TT, 2000 cells per well for HeLa, 2000 cells per well for 23132/87, 9000 cells per well for SW-948, 700 cells per well for HCT-116, 1500 cells per well for BHY, 700 cells per well for A-431, 1500 cells per well for HEP-G2, 500 cells per well for NCI-H460, 1000 cells per well for A-549, 1500 cells per well for PANC-1, 2500 cells per well for U-87 MG, 700 cells per well for A-375, 1500 cells per well for RVH-421, 2000 cells per well for SW-1353, 500 cells per well for C2C12, 500 cells per well for LL/2, and 3000 cells per well for CF21.T. In a volume of 90 μL per well of culture medium the cells were treated with compounds at indicated final concentrations by adding 10 μL per well of 10× compound working solutions from 1:100 pre-diluted 1000× compound DMSO stock-solutions in H2O (Water For Injection, WFI, Fisher Scientific, Gibco™ #A12873) or with the empty carrier DMSO (AppliChem, #A3672) at 0.1% v/v as control yielding a final volume of 100 μL per well. […] The readout was taken with a multi-well plate-reader (Tecan Spark®) in the fluorescence mode with applying a filter for excitation at 560 nm (band width 10 nm) and for emission at 590 nm (band width 10 nm). […]
# MDA-MB-231 cells = assay: alamarBlue proliferation assay with MDA-MB-231 cells (glucose-free Leibovitz's L-15 medium); details: read-out: Activity on MDA-MB-231 (IC50); glucose-free Leibovitz's L-15, 10% FBS; day 5; alamarBlue
# A-431 cells = assay: alamarBlue proliferation assay with A-431 cells; details: read-out: Activity on A-431: IC50, DMEM medium, 10% FBS
# HEP-G2 cells = assay: alamarBlue proliferation assay with HEP-G2 cells; details: read-out: Activity on HEP-G2: IC50, RPMI 1640 medium, 10% FBS
# HCC-1937 cells = assay: alamarBlue proliferation assay with HCC-1937 cells; details: read-out: Activity on HCC-1937 (IC50), day 5
# Text: as §1
# T-47D cells = assay: alamarBlue proliferation assay with T-47D cells; details: read-out: Activity on T-47D (IC50), day 5
# HeLa cells = assay: alamarBlue proliferation assay with HeLa cells; details: read-out: Activity on HeLa (IC50), day 5
# Text: These hyperproliferative processes can be benign or malignant and include hyperplasia, neoplasia, cancer and pre-cancerous lesions, and metastases. The antiproliferative activities of compounds falling under general formula (I) were investigated on human primary epidermal keratinocytes (HPEK) and human, murine and canine cell lines derived from hyperproliferative tissue or different cancer types, including MDA-MB-231, ZR-75-30, HCC-1395, HCC-1937, and T-47D all originating from cancer of the breast, JURKAT, RPMI-8402, LOUCY, TANQUE, REC-1, HL-60, NB-4 all originating from different types of blood cancer including lymphoma and leukemia of T-cells, B-cells and myeloid cells, TT originating from cancer of the neuroendocrine system, HeLa originating from cancer of the cervix, 23132/87, SW-948, and HCT-116 all originating from cancer of the gastrointestinal tract including stomach and colon, BHY originating from cancer of the mucosal epithelium, A-431 originating from cancer of the skin, HEP-G2 originating from cancer of the liver, NCI-H460 and A-549 both originating from cancer of the lung, PANC-1 originating from cancer of the pancreas, U-87 MG originating from cancer of the brain, A-375 and RVH-421 both originating from cancer of melanocytes, SW-1353 originating from cancer of bone-derived chondrocytes, C2C12 a mouse cell line originating from hyperproliferative muscle progenitor cells, LL/2 a mouse cell line originating from cancer of the lung, CF21.T a dog cell line originating from cancer of the connective tissue. To this end, according cells were seeded into 96-well plates (CORNING #3598) suitable for fluorescence assays at following initial cell numbers: 1000 cells per well for HPEK; 3000 cells per well for MDA-MB-231, 8000 cells per well for ZR-75-30, 1500 cells per well for HCC-1395, 1500 cells per well for HCC-1937, 3000 cells per well for T-47D, 1500 cells per well for JURKAT, 5000 cells per well for RPMI-8402, 9000 cells per well for LOUCY, 1500 cells per well for TANQUE, 9000 cells per well for REC-1, 1000 cells per well for HL-60, 1000 cells per well for NB-4, 9000 cells per well for TT, 2000 cells per well for HeLa, 2000 cells per well for 23132/87, 9000 cells per well for SW-948, 700 cells per well for HCT-116, 1500 cells per well for BHY, 700 cells per well for A-431, 1500 cells per well for HEP-G2, 500 cells per well for NCI-H460, 1000 cells per well for A-549, 1500 cells per well for PANC-1, 2500 cells per well for U-87 MG, 700 cells per well for A-375, 1500 cells per well for RVH-421, 2000 cells per well for SW-1353, 500 cells per well for C2C12, 500 cells per well for LL/2, and 3000 cells per well for CF21.T. In a volume of 90 μL per well of culture medium the cells were treated with compounds at indicated final concentrations by adding 10 μL per well of 10× compound working solutions from 1:100 pre-diluted 1000× compound DMSO stock-solutions in H2O (Water For Injection, WFI, Fisher Scientific, Gibco™ #A12873) or with the empty carrier DMSO (AppliChem, #A3672) at 0.1% v/v as control yielding a final volume of 100 μL per well. At day 5 after starting the treatments the cells were subjected to the alamarBlue® Proliferation Assay (Bio-Rad Serotec GmbH, BUF012B) according to the protocol of the manufacturer. The readout was taken with a multi-well plate-reader (Tecan Spark®) in the fluorescence mode with applying a filter for excitation at 560 nm (band width 10 nm) and for emission at 590 nm (band width 10 nm). […]
SMILES,IC50 (RPMI-8402 cells) [µM],IC50 (LOUCY cells) [µM],IC50 (MDA-MB-231 cells) [µM],IC50 (A-431 cells) [µM],IC50 (HEP-G2 cells) [µM],IC50 (HCC-1937 cells) [µM],IC50 (T-47D cells) [µM],IC50 (HeLa cells) [µM]
CC(=O)N1CCN(C(=O)c2ccc(Oc3ccc(C4CCCCC4)cc3C=O)cc2)CC1,≤ 20,≤ 5,≤ 20,≤ 20,≤ 20,≤ 20,≤ 20,–
C#CCN1CCN(C(=O)c2ccc(Oc3ccc(C4CCCCC4)cc3C=O)cc2)CC1,–,≤ 20,≤ 20,≤ 20,–,–,–,–
C#CCN1CCN(C(=O)c2ccc(Oc3ccc(C4CCC5(CC4)OCCO5)cc3C=O)cc2)CC1,≤ 1,≤ 0.2,≤ 5,≤ 5,≤ 5,≤ 5,≤ 1,≤ 1

# Source: patent US20260384421A1, “NOVEL COMPOUNDS THAT CAN BE USED AS THERAPEUTIC AGENTS” (published 2026)
